The target in the assay is human recombinant cytochrome P450 2C19 (Homo sapiens, UniProt P33261). Put plainly: biochemical.

By UniProt entry, the sequences of proteins in these tests, tags left out.
UniProt P33261, whole entry: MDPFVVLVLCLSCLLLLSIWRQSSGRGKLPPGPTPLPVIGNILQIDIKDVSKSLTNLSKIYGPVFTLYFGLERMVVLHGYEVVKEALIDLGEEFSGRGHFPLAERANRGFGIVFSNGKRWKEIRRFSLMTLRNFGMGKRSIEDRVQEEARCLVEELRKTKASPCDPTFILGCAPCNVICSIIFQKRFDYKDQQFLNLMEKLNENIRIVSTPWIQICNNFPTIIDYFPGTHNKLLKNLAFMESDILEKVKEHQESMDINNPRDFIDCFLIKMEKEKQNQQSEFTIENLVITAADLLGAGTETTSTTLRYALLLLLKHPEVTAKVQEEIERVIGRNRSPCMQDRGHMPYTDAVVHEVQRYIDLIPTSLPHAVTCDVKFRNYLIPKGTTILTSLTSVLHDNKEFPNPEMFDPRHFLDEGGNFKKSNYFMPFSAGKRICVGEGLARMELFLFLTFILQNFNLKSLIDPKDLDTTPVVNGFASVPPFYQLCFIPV

Each structure is given as a SMILES string.

Usually IC50 stands for the concentration that gives 50% inhibition. For the compound `COC[C@]1(c2ccccc2)CCN([C@@H](C)c2ccc(-c3ccc(=O)n(C)c3)cc2)C(=O)O1` [Example 77, (R)-6-Methoxymethyl-3-{(S)-1-[4-(1-methyl-6-oxo-1,6-dihydro-pyridin-3-yl)-phenyl]-ethyl}-6-phenyl-[1,3]oxazinan-2-one], the IC50 was found to be 34 µM.

The values above are taken from patent publication US8138178B2, “Cyclic inhibitors of 11beta-hydroxysteroid dehydrogenase 1” (Vitae Pharmaceuticals, Inc., priority 2008, dated 2012).
